MLL AF4-AF9 inh: blocks AF4 peptide binding to human AF9; P42568; AlphaScreen, biotin-AF4 peptide binding to FLAG-AF9; inhibition, % at 10 µM; hit rate 0.47% among 350,000; AID 651704;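 active = every replicate reaching a set inhibition limit, whatever the replicate mean, cut at about 25% in these data; inconclusive = mean inhibition reaches that limit but some replicates miss it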
RAD54 branch: blocks human RAD54 Holliday junction branch migration | Q92698 | FAM/BHQ fluorescence | inhibition, % at 10.4 µM | hit rate 0.14% among 360,000 | AID 602329;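 active = mean normalized replicate activity at least 40 and at least half of replicates scoring 40 or more; inconclusive = only one of the two criteria met; inactive = mean below 40 and under half of replicates reaching 40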;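 note: inhibitors cause a drop in the FAM fluorescence signal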
E-sel inducer: induces E-selectin expression in human endothelial cells; P16581; HUVEC E-selectin immunofluorescence imaging; normalized: neutral wells 0, TNF-alpha wells 100; activation, % at 7.58 µM; hit rate 0.37% among 260,000;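 active = mean E-selectin-positive cell signal at least 10% of the positive control, reached in at least 60% of replicates, without over 20% cell loss; inconclusive = no rule given, readout overlaps actives, possibly toxicity-flagged; inactive = the rest, including those meeting only one limit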
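Test system: HUVEC | Signal: Immunofluorescence imaging | Read-out: Percent E-selectin-positive cells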
RAD52 anneal inh: RAD52 (human) annealing inhibition | P43351 | recombinant RAD52 DNA annealing, FRET fluorescence | inhibition, % at 18.7 µM | hit rate 0.46% among 360,000 | AID 651710;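 active = every replicate showing at least 50% inhibition; inconclusive = mean inhibition at least 50% but not in every replicate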
Yeast UUG start: modulators of start codon recognition fidelity in yeast; AID 602363; hit rate 0.13% among 350,000; activity score, % at 18.7 µM; S. cerevisiae UUG-firefly luciferase reporter, luminescence/redox ratio;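 active = replicate mean at a twofold rise or more, about +100% in these data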;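 note: firefly luciferase made from a UUG start codon reports start codon fidelity; reporter light over untreated wells divided by growth signal over untreated wells; some hits fall short of that in this replicate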
SIRT5 inh: inhibitors of human sirtuin-5 desuccinylase; Purified SirT5, succinyl-peptide AMC, trypsin-coupled fluorescence; hit rate 1.1% among 330,000; inhibition, % at 15 µM; Q9NXA8; in the data active = inhibition above about 15%; inconclusive = no clear call, values can overlap the other calls
Alpha interfer: counter-screen: AlphaScreen signal interference. shares compounds with MLL AF4-AF9 inh. signal luminescence. AC50, µM (series often up to 12 µM). hit rate 45% among 530; cut-off not given, nearly all actives have AC50 up to about 14 µM
A number is an active result; . = inactive; ? = inconclusive; / = not tested or not shown. This is a sample that favours compounds with a hit; in the whole collection about 1.8% have one here.

SMILES	MLL AF4-AF9 inh	RAD54 branch	E-sel inducer	RAD52 anneal inh	Yeast UUG start	SIRT5 inh	Alpha interfer
COc1cccc(-c2sc3ccccc3c2-c2ccc(OCCN3CCCC3)cc2)c1	?	.	.	.	.	/	/
COc1cccc(-c2sc3ccccc3c2-c2ccc(OCCN(C)C)cc2)c1	29	.	.	.	.	.	.
CCOC(=O)/C(C#N)=C/c1c(N2CCN(Cc3ccc4c(c3)OCO4)CC2)nc2c(C)cccn2c1=O	39	.	.	.	.	.	.
CC(C)NC(=O)Nc1ccc2c(c1)C(=O)N([C@H](C)CO)C[C@H](C)[C@@H](CN(C)Cc1ccc(-c3ccccc3)cc1)O2	.	.	.	.	/	.	/
CC1(C)CNc2cc(N)ccc2S1	63	/	.	.	/	.	2.3µM
COc1ccccc1N(C(C)=O)C1=C(Cl)C(=O)c2ccccc2C1=O	28	.	.	.	.	/	4.4µM
COc1ccccc1N(C(=O)CCl)c1cn(C(C)=O)c2ccccc12	.	.	/	.	.	.	/
CCN(CC)c1ccc(CNc2ccc3c(c2)ncn3C(C)(C)C)cc1	41	.	/	.	.	.	9µM
CCc1ccc(CNc2ccc3c(c2)ncn3C(C)(C)C)cc1	.	.	.	.	.	.	/
CC1Cc2ccccc2N1C(=O)c1ccc(N2CCCC2)c([N+](=O)[O-])c1 (stereo unspecified)	.	.	/	.	.	.	.
Cc1cccc(S(=O)(=O)N2CC[C@@H]3[C@@H](CO)N(C)c4ccc(-c5ccccc5F)cc4[C@@H]32)c1	.	.	.	.	.	.	/
O=C(O)c1ccccc1NC(c1ccccc1)c1ccc2cccnc2c1O (stereo unspecified)	.	/	.	.	/	/	/
COc1ccccc1NC(c1cccnc1)c1ccc2cccnc2c1O (stereo unspecified)	48	.	.	.	.	.	.
Cc1ccc2ccc(C(Nc3cccc(C(F)(F)F)c3)c3cccnc3)c(O)c2n1 (stereo unspecified)	33	.	.	.	.	.	.
Cc1ccnc(NC(c2cccnc2)c2ccc3cccnc3c2O)c1 (stereo unspecified)	82	/	.	.	/	.	1.5µM
Cc1ccnc(NC(c2ccsc2)c2ccc3ccc(C)nc3c2O)c1 (stereo unspecified)	55	.	/	.	.	.	.
O=C(Nc1ccc2c(c1)[C@@H]1C[C@H](CC(=O)N3CCCCC3)O[C@H](CO)[C@@H]1O2)NC1CCCC1	.	.	.	.	/	.	/
C[C@@H]1CCCCO[C@H](CN(C)C(=O)Nc2ccc(C(F)(F)F)cc2)[C@@H](C)CN([C@@H](C)CO)C(=O)c2cc(NC(=O)c3ccccc3)ccc2O1	.	.	.	.	.	.	/
C[C@@H]1ON(C)[C@H]2C[C@H]3c4[nH]c5cccc(-c6ccccc6)c5c4CCN3C[C@@H]12	/	/	.	.	/	.	/
C[C@@H]1ON(C)[C@H]2C[C@H]3c4[nH]c5ccc(-c6ccc7c(c6)OCO7)cc5c4CCN3C[C@@H]12	31	.	.	.	.	.	.
COc1cccc2sc(N(CCCN(C)C)C(=O)c3ccc(S(=O)(=O)N4CCCc5ccccc54)cc3)nc12	36	.	.	.	.	.	.
NCCCC[C@@H]1NC(=O)c2cc([N+](=O)[O-])cc(F)c2NCCCC[C@@H](C(N)=O)NC(=O)CNC1=O	42	.	/	.	.	/	.
CC[C@H](C)[C@@H]1NC(=O)c2cc([N+](=O)[O-])cc(F)c2NCCCC[C@@H](C(N)=O)NC(=O)[C@H](CCCCN)NC1=O	?	.	.	65	.	.	.
COc1ccc(CN2C[C@@H](C)[C@@H](OC)CN(C)C(=O)c3cc(NC(C)=O)ccc3OC[C@H]2C)cc1	.	.	.	.	.	.	/
CC(=O)NC(c1ccccc1)c1cc(Cl)c2cccnc2c1O (stereo unspecified)	.	.	.	.	.	.	/
SMILES	MLL AF4-AF9 inh	RAD54 branch	E-sel inducer	RAD52 anneal inh	Yeast UUG start	SIRT5 inh	Alpha interfer
Oc1c(C(c2ccccn2)N2CCCCC2)cc(Cl)c2cccnc12 (stereo unspecified)	58	.	.	.	.	.	8.7µM
CCC(=O)NC(c1cccs1)c1cc(Cl)c2cccnc2c1O (stereo unspecified)	.	/	.	.	/	.	/
CN1CCN(C(c2ccc(Cl)cc2)c2cc(Cl)c3cccnc3c2O)CC1 (stereo unspecified)	85	.	/	.	.	.	2.2µM
CN1CCN(C(c2ccc(C(F)(F)F)cc2)c2cc(Cl)c3cccnc3c2O)CC1 (stereo unspecified)	81	/	/	.	/	.	2.1µM
CCN(CC)CCNc1cccc2sc3ccccc3c(=O)c12	29	90	.	.	.	.	2.2µM
CCCC(=O)NC(c1ccc(N(C)C)cc1)c1ccc2cccnc2c1O (stereo unspecified)	50	.	.	.	.	.	1.5µM
CC(=O)n1c(-c2ccccc2)c(CO)c2ccccc21	.	.	.	.	.	/	/
NCCc1c(-c2ccccc2)n(-c2ccccc2)c2ccccc12	47	/	/	.	/	.	14µM
C[C@@H]1CN([C@@H](C)CO)C(=O)c2cccc(NC(=O)Nc3ccc(F)cc3)c2O[C@H]1CN(C)CC1CC1	.	.	.	.	.	.	/
CN(C)CCNc1nc2sc3c(c2c(=O)n1CCc1ccccc1)CCCCC3	31	.	/	.	.	.	.
COc1ccc(OC)c(C2=NOC(C(=O)Nc3c(C)n(C)n(-c4ccccc4)c3=O)C2)c1 (stereo unspecified)	.	.	.	.	.	.	.
COc1ccc(C2=NOC(C(=O)Nc3c(C)n(C)n(-c4ccccc4)c3=O)C2)cc1 (stereo unspecified)	.	.	.	.	.	.	/
C[C@@H]1CN([C@H](C)CO)C(=O)CCCn2cc(nn2)CO[C@@H]1CN(C)C(=O)C1CC1	/	/	.	/	/	/	/
COc1ccc(CN2CC3(C2)CN(Cc2ccc4c(c2)OCO4)[C@H](CO)c2[nH]c4cc(OC)ccc4c23)cc1	36	/	.	/	/	/	.
Oc1ccc(CN2CCN(Cc3ccccc3)CC2)c2cccnc12	/	.	/	/	.	/	/
O=S(=O)(c1ccc(Cl)cc1)N1CCN(Cc2ccc(O)c3ncccc23)CC1	75	/	.	.	/	.	.
COc1ccccc1C#Cc1ccc2c(c1)[C@H]1[C@H](CCN1C(=O)c1ccncc1)[C@@H](CO)N2	51	/	.	87	/	.	8µM
C[C@@H]1CCCCO[C@@H](CN(C)Cc2ccc(Cl)c(Cl)c2)[C@@H](C)CN([C@H](C)CO)C(=O)c2cc(NS(C)(=O)=O)ccc2O1	.	.	.	.	.	.	/
CCc1nc2ccc(C(=O)NC3CCN(Cc4ccccc4)CC3)cn2c1N(C)Cc1ccc(N(C)C)cc1	52	.	.	.	.	.	8.5µM
CCc1nc2ccc(C(=O)NC3CCN(C)CC3)cn2c1N(C)CCC(C)C	.	.	.	.	.	.	/
